Experimental data reported in patent publication US6652890B2, “Tea catechins as cancer specific proliferation inhibitors” (Purdue Research Foundation, priority 1999, dated 2003).

Key:
[1] = test system: BT-20 human mammary adenocarcinoma cells; assay: Effect on intact cells in culture (growth, morphology, DAPI); format: cell-based; details: 5×10^−6 to 5×10^−5 M EGCg
Experimental: BT-20 human breast adenocarcinoma cells were cultured in Eagle's minimal essential medium nonessential amino acids and Earle's balanced salts supplement with 10% fetal bovine serum. Media were renewed as for MCF-10A cells.

[2] = test system: HeLa (human cervical carcinoma) cells; assay: as above; format: cell-based; details: 5×10^−6 to 5×10^−5 M EGCg

Substance: (−) - epigallocatechin gallate [EGCg]
- Cell volume relative to untreated cells [1]: ~50%
- Cell volume relative to untreated cells [2]: ~50%
